The numbers were not newly measured in patent US5521180A, “Morpholine derivative” (Yamanouchi Pharmaceutical Co., Ltd., priority 1993, dated 1996), which cites them from elsewhere.

This data set relates to 5-HT reuptake. Conditions: background; cited from earlier work.

Turning to `O=c1n(CCCN2CCN(c3cccc(Cl)c3)CC2)nc2ccccn12` [Trazodone], the “5-HT reuptake inhibitory activity (in words)” value is on record as “very weak”.
